Results reported in patent publication US7282344B2, “Cation conducting GABAA receptors and their use” (Neurosearch A/S, priority 2001, dated 2007).

Protein sequences, listed by entry. Tags and fused reporters are not part of them. Chains listed by the source or under a name are the forms on record and can include a tag or linker. Residues count along the entry.
UniProt P18507, 40-475, stated change not applied: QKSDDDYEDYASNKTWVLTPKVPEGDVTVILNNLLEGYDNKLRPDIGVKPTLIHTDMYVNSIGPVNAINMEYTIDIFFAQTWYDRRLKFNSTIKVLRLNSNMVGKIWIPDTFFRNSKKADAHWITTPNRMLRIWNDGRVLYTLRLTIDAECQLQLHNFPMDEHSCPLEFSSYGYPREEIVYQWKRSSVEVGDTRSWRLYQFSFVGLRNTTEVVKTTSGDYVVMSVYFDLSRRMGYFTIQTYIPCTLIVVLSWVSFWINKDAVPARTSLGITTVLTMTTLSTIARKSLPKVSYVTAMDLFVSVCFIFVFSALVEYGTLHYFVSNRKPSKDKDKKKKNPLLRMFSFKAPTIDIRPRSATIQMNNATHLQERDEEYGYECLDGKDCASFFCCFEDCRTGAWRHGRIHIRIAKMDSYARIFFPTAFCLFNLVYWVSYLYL
UniProt P28472, with tags, fused parts or gaps DEL271-271/A273G/A274E/R275K: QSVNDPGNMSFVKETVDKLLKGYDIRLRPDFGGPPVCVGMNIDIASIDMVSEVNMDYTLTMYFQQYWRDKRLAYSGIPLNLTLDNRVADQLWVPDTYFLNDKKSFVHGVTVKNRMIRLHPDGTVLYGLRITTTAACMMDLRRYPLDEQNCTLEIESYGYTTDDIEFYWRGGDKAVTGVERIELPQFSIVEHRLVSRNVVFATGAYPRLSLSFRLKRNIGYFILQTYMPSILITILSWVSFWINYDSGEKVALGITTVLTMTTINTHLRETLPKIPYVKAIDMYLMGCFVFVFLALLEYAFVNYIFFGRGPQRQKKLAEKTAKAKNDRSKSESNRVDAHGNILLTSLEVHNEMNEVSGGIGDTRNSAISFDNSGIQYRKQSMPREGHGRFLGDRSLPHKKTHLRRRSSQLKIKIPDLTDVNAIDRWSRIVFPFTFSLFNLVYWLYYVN
UniProt P47869, 29-451, stated change not applied: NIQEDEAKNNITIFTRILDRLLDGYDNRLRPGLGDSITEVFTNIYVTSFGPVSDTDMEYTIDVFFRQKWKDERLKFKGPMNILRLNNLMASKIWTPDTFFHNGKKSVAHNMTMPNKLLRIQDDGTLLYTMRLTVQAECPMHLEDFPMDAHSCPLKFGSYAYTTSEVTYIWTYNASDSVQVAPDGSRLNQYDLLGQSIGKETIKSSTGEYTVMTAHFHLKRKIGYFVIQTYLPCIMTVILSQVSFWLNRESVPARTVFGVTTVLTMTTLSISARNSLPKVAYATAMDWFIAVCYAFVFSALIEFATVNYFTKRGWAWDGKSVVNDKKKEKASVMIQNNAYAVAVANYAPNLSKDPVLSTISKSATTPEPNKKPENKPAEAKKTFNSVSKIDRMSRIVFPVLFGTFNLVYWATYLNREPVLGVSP

Target: T1, GABAA receptor α2 β3 DSGEK γ2 (Homo sapiens, UniProt P18507+P28472+P47869, A273G/A274E/DEL271-271/R275K)
T1 construct: expressed in transfected cells; host or cells: CHO-K1 (ATCC No. CCL61)
Experiment: [^3H]-Muscimol binding, mutated receptor
Procedure: Binding studies were performed using standard methods. Membranes were prepared from CHO-K1 cells expressing recombinant GABAAR subunits. The cells were washed in PBS (Life Technologies), trypsinized, washed twice in tris-citrate buffer (50 mM, pH 7.1) and centrifuged for 10 minutes at 5,000 g.
Membranes were resuspended in membrane wash buffer [20 mM KH2PO4K2HPO4, pH 7.5, 50 mM KCl, 0.025% (w/v) NaN3, and various protease inhibitors (1 mM EDTA, 2 mM benzamidine chloride, 0.1 mM benzethonium chloride, 50 U/ml bacitracin, 0.3 mM phenylmethylsulfonyl fluoride, 10 mg/I ovomucoid trypsin inhibitor, 10 mg/l soybean trypsin inhibitor)] and centrifuged for 30 minutes at 177,000 g and 4° C. The pellet was resuspended in binding assay buffer (20 mM KH2PO4/K2HPO4, pH 7.5 and 100 mM KCl) to a protein concentration of 1 mg/ml and homogenized just before use. Binding was performed with 1, 3, 10, 30, 100 or 300 nM of [^3H]-muscimol (20 Ci/mmol, Dupont-New England Nuclear) in triplicate in a final volume of 250 μl containing 200 μg of protein, and non-specific binding was determined in the presence of 1 mM GABA (Sigma). Samples were incubated at 4° C. for 30 minutes and labelled membranes were harvested on a Brandel cell harvester using GF/B filters (Whatman). The filters were washed with 3×4 ml binding assay buffer and the amount of radioactivity was determined by liquid scintillation counting. […]

SMILES: NCc1cc(=O)[nH]o1 [[^3H] Muscimol, Muscimol]
- [^3H]muscimol binding, mutant versus wild-type: No changes
